# The entries are a selection whose mix differs from that of the whole data set.
# Experiment: beta-lactam sensitization of Mtb H37Rv, H37Rv (AID 434955);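 note: growth measured after seven days incubation then overnight dye step; 0% = bacteria only wells and 100% = bacteria with antibiotic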
# Conditions: M. tuberculosis H37Rv growth with meropenem, percent inhibition; measured here: primary screen without meropenem; at 25 µM
row,Compound,inhibition [%]
1,CCCCCCCCCCCCCCCC[N+](C)(C)CCN(Cc1ccc(OC)cc1)c1ncccn1,-6.92
